# The list shows a part of the results, in another mix than the full data. Activity calls are given as the source filed them.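 How the source made its calls: active means inhibition above the campaign mean of all compounds plus 3 SD (cut at about 26% in these data); inactive means the rest.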
# Protein sequences, listed by entry. Tags and fused reporters are not part of them. Lines headed by an entry give the natural chain unless they say otherwise; changes in a name come on top.
# UniProt Q9Y570: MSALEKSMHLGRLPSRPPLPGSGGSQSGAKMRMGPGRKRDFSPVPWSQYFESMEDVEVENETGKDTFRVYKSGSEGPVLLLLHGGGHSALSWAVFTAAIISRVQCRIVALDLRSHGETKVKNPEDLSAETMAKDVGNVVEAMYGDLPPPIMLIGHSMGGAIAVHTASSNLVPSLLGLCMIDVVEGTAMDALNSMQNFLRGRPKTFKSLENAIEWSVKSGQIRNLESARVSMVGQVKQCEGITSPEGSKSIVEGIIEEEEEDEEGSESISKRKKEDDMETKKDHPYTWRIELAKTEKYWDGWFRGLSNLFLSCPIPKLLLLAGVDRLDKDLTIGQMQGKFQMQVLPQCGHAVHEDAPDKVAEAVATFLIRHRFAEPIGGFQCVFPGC
# Target: Protein phosphatase methylesterase 1 (Homo sapiens) (UniProt Q9Y570)
# Assay: PME-1 inhibitors via competitive probe labeling, primary screen, biochemical, fluorescence polarization, FP-Rh probe, HTS (AID 2130);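 further: competitive labeling of PME-1 active site by serine hydrolase directed probe; 0% = PME-1 with DMSO and 100% = wells lacking PME-1 enzyme; inhibitors block probe labeling so polarization falls and inhibition rises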
# Conditions: recombinant PME-1, FP-Rh probe fluorescence polarization; at 5.9 µM; active compounds read high
row,SMILES,inhibition
1,CC(=O)Nc1ccc(Oc2c([N+](=O)[O-])cc([N+](=O)[O-])cc2[N+](=O)[O-])cc1,inactive: 3.14%
2,CC(=O)Nc1ccc([As](=O)(O)O)c(O)c1,inactive: -4.91%
3,C[C@@H]1C=CCP(=O)(Oc2ccccc2)O1 (some centres undefined),inactive: 5.15%
4,C[C@H]1OP(=O)(Oc2ccccc2)C[C@@H]2O[C@@H]21 (some centres undefined),inactive: 2.93%
5,Cc1ccccc1CN(C)C(=O)COC(=O)C(O)(c1ccccc1)c1ccccc1,inactive: 2.4%
6,CC(=O)c1ccc(N2CC2c2ccncc2)cc1 (centres undefined),inactive: -8.05%
7,CC(C)(C)C(=O)NC(Sc1ccccc1)C(Cl)(Cl)Cl (centres undefined),inactive: -7.42%
8,CCOc1ccc(C2=NCC(CBr)S2)cc1 (centres undefined),inactive: 5.58%
9,O=P1(Nc2nc3ccc(Cl)cc3s2)COc2ccccc2O1 (centres undefined),inactive: -3.27%
10,CN(C)C(=O)Oc1noc2ccccc12,inactive: -4.84%
11,Cc1ccccc1OP(=O)(Nc1ccccn1)Oc1ccccc1C,inactive: 4.41%
12,CCC(=O)N1C2C3N(C(=O)CC)C1C1N(C(=O)CC)C(C(N1C(=O)CC)N3C(=O)CC)N2C(=O)CC,inactive: -3.26%
13,O=C(OC1CN2CCC1CC2)c1ccccc1 (centres undefined),inactive: -8.27%
14,CC(=O)NC(SC(=S)N(CC(C)C)CC(C)C)C(Cl)(Cl)Cl (centres undefined),inactive: 6.83%
15,Cc1ccc(OP(=O)(Nc2ccccn2)Oc2ccc(C)cc2)cc1,inactive: 2.26%
16,COC(=O)c1cc2c(s1)N=C(c1ccccc1)N(C)P2(=O)N1CCOCC1 (centres undefined),inactive: -8.83%
17,Cc1ccc(NP(=O)(Oc2cccc(C)c2)Oc2cccc(C)c2)nc1,inactive: -3.19%
18,CCOC(=O)NC(Sc1ccccc1)C(Cl)(Cl)Cl (centres undefined),inactive: 2.6%
19,c1ccc(-c2nn[nH]n2)c(-c2nn[nH]n2)c1,inactive: 4.92%
20,CCNC(=S)/N=C(\N)N[N+](=O)[O-],inactive: -3.22%
21,O=C(OC1CN2CCC1CC2)c1cccc(Cl)c1 (centres undefined),inactive: -9.38%
22,Nc1ccc([As](=O)(O)c2ccc([N+](=O)[O-])cc2)cc1,inactive: 3.95%

row,SMILES,inhibition
1,C(Cc1nn[nH]n1)Cc1nn[nH]n1,inactive: -3.6%
2,O=[As](O)(c1ccccc1)c1ccc(O)cc1,inactive: 8.48%
3,O=[N+]([O-])c1ccc(O)c(/C=N/Nc2ccc([N+](=O)[O-])cc2[N+](=O)[O-])c1,inactive: 14.1%
4,CC(=O)NC(SC(=S)N(C)C)C(Cl)(Cl)Cl (centres undefined),inactive: -5.91%
5,O=[N+]([O-])c1ncn(CCn2cnc([N+](=O)[O-])n2)n1,inactive: -4.68%
6,C[C@H]1OP(=O)(Oc2ccccc2)[C@H](O)[C@H](O)[C@H]1N=[N+]=[N-] (some centres undefined),inactive: 4.85%
7,O=P(Nc1nc2ccccc2s1)(c1ccccc1)c1ccccc1,inactive: 9.15%
8,O=P(Nc1ccccn1)(c1ccc(Br)cc1)c1ccc(Br)cc1,inactive: -2.63%
9,CN(C)C1(CNC(=O)c2ccc(Cl)c(S(N)(=O)=O)c2)CCCCC1,inactive: 7.9%
10,c1nnnn1CCn1cnnn1,inactive: -7.27%
11,CC(C)C(=O)NC(Sc1ccccc1)C(Cl)(Cl)Cl (centres undefined),inactive: 1.49%
12,O=P(Nc1nccs1)(c1ccccc1)c1ccccc1,inactive: 7.34%
13,CC1CCN(C(=O)Oc2c(Cl)cc(Cl)c3cccnc23)CC1,inactive: -3.24%
14,CN(C)C(=O)OCCc1n(C)cc[n+]1C,inactive: 0.81%
15,CC(C)=N/N=C(\N)N[N+](=O)[O-],inactive: -1.95%
16,CCN(/C(=N/P(=O)(N1CCOCC1)N1CCOCC1)N1CCOCC1)c1ccc(OC)cc1,inactive: 1.52%
17,C[N+]1=C2C=CC=CC=C2SC12C([N+](=O)[O-])=CC([N+](=O)[O-])=C[C-]2[N+](=O)[O-] (centres undefined),inactive: 17.4%
18,Nc1ccc([As](=O)(O)c2ccc(N)cc2)cc1,inactive: -3.36%
19,CCc1nc2c(n1)c1c(non1O)c1c2no[n+]1[O-],inactive: 22%
20,O=[N+]([O-])c1cc([N+](=O)[O-])c(CCNc2ccccc2)c([N+](=O)[O-])c1,active: 31.6%
21,Cc1ccc(NP(=O)(Oc2ccccc2)Oc2ccccc2)nc1,inactive: -3.93%
22,O=[N+]([O-])c1cccc2n[nH]nc12,inactive: -1.05%

row,SMILES,inhibition
1,CC(=O)N1C2C3N(C(C)=O)C1C1N(C(C)=O)C(C(N1C(C)=O)N3C(C)=O)N2C(C)=O,inactive: -5.21%
2,COc1ccc(C2=NCC(CBr)S2)cc1 (centres undefined),inactive: -1.43%
3,O=[N+]([O-])c1cccc(NC2=NCC(CBr)S2)c1 (centres undefined),inactive: 6.81%
4,O=[N+]([O-])c1ncn(CCn2ncnc2[N+](=O)[O-])n1,inactive: -3.95%
5,CC(C)(C)C(=O)NC(Sc1ccncn1)C(Cl)(Cl)Cl (centres undefined),inactive: 2.9%
6,O=C(Nc1cc([As](=O)(O)O)ccc1O)c1ccccc1,inactive: 5.97%
7,CCN(N=Nc1nonc1N)c1nonc1N,inactive: -2.18%
8,O=[N+]([O-])c1cc([N+](=O)[O-])c(CCN2CCOCC2)c([N+](=O)[O-])c1,active: 59.4%
9,Cc1ccc(NP(=O)(Oc2ccccc2F)Oc2ccccc2F)nc1,inactive: 0.74%
10,CN(C(=O)Cc1ccc(Cl)c(Cl)c1)[C@H]1CCCC[C@@H]1N1CCCC1,inactive: -8.94%
11,CCOP(=O)(Nc1ccccc1)OCC,inactive: 2.55%
12,Cc1cc(SC(NC(=O)c2ccc(F)cc2)C(Cl)(Cl)Cl)ncn1 (centres undefined),inactive: 3.26%
13,O=P(Nc1nc2ccc(Cl)cc2s1)(c1ccccc1)c1ccccc1,inactive: 7.59%
14,O=C(O)c1ccccc1[As](=O)(O)O,inactive: 0.43%
15,CC(=O)Nc1ccc([As](=O)(O)O)cc1,inactive: -5.46%
16,Cc1c2non([O-])c-2c(C)[n+](=O)[n+]1[O-],inactive: -6.58%
17,O=C(NC(Sc1ccncn1)C(Cl)(Cl)Cl)c1ccccc1 (centres undefined),inactive: -2.37%
18,Oc1ccccc1CNc1ccccn1,inactive: -4.25%
19,CC(C)CC(=O)NC(Sc1ccc(Cl)cc1)C(Cl)(Cl)Cl (centres undefined),inactive: -2.11%
20,Nc1cc(N)c2nonc2c1[N+](=O)[O-],inactive: -0.17%
